# From paper PMC6155021, “Ancient and modern anticonvulsants act synergistically in a KCNQ potassium channel binding pocket” (Nature Communications, 2018)
# Amino acid sequences for entries named in this document (tags omitted).
# UniProt Q09470, whole entry: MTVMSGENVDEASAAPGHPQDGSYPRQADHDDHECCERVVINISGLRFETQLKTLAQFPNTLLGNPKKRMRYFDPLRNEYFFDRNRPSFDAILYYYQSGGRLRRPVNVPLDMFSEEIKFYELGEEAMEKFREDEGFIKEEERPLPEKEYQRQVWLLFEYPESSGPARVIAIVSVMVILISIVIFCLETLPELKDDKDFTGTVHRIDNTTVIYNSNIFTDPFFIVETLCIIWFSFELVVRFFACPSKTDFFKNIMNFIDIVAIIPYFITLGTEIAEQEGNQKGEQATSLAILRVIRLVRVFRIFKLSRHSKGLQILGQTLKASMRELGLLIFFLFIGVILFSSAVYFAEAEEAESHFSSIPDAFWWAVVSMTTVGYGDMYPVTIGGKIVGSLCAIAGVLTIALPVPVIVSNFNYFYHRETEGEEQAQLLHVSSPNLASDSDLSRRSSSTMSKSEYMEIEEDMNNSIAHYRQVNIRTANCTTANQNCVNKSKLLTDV
# Columns and labels:
# Assay type in all cases: cell-based
# KCNA1 = KCNA1 (Homo sapiens, UniProt Q09470); test: Two-electrode voltage-clamp of KCNA1 in Xenopus oocytes; settings: KCNA1 (table title); 500 µM
# Description: (§1) cRNA transcripts encoding human KCNA1, KCNQ1, KCNQ2, KCNQ3, KCNQ4, or KCNQ5 were generated by in vitro transcription using the T7 polymerase message machine kit (Thermo Fisher Scientific), after vector linearization, from cDNA sub-cloned into plasmids incorporating X. laevis β-globin 5′ and 3′ UTRs flanking the coding region to enhance translation and cRNA stability. cRNA was quantified by spectrophotometry. Mutant cDNAs were generated by site-directed mutagenesis using a QuikChange kit according to manufacturer’s protocol (Stratagene, San Diego, CA) and corresponding cRNAs prepared as above. Defolliculated stage V and VI X. laevis oocytes (Ecocyte Bioscience, Austin, TX) were injected with Kv channel α subunit cRNAs (10 ng total per oocyte). Oocytes were incubated at 16 °C in Barth’s saline solution (Ecocyte) containing penicillin and streptomycin, with daily washing, for 3–5 days prior to two-electrode voltage-clamp (TEVC) recording.
# Oocytes were placed in a small-volume oocyte bath (Warner) and viewed with a dissection microscope. Chemicals were sourced from Sigma. […] Currents were recorded in response to pulses between −80 and +40 mV at 20 mV intervals, or a single pulse to +40 mV, from a holding potential of −80 mV, to yield current–voltage relationships, current magnitude, and for quantifying activation rate. […]
# KCNQ4 = KCNQ4 (Homo sapiens, UniProt P56696); test: cell-based; settings: for Non-normalized tail current V0.5 / Normalized tail current V0.5 / Slope: KCNQ4
# Description: as §1
# (§2) Oocytes were placed in a small-volume oocyte bath (Warner) and viewed with a dissection microscope. Chemicals were sourced from Sigma. Bath solution was (in mM): 96 NaCl, 4 KCl, 1 MgCl2, 1 CaCl2, 10 HEPES (pH 7.6). […] MTX (DMSO), sorbic acid (ethanol), and glutaconic acid (molecular grade H2O) were stored at −20 °C as 1 M stocks. Oleamide was stored as a 1 mM stock in ethanol at 4 °C. Palmitic acid was conjugated with bovine serum albumin as a 1 mM stock and stored at −20 °C. All compounds were diluted to working concentrations each experimental day. All compounds were introduced to the recording bath via gravity perfusion at a constant flow of 1 ml/min for 3 min prior to recording. Pipettes were of 1–2 MΩ resistance when filled with 3 M KCl. Currents were recorded in response to pulses between −80 and +40 mV at 20 mV intervals, or a single pulse to +40 mV, from a holding potential of −80 mV, to yield current–voltage relationships, current magnitude, and for quantifying activation rate. TEVC data analysis was performed with Clampfit10.2 (Molecular Devices) and Graphpad Prism software (GraphPad, San Diego, CA, USA); values are stated as mean ± SEM. Normalized tail currents were plotted versus prepulse voltage and fitted with a single Boltzmann function:1 g=A1-A2/1+expV12-Vy+A2, where g is the normalized tail conductance, A1 is the initial value at −∞, A2 is the final value at +∞, V1/2 is the half-maximal voltage of activation, and Vs the slope factor. Activation and deactivation kinetics were fitted with single-exponential functions.
# KCNQ3* (KCNQ3-A315T) = KCNQ3* (KCNQ3-A315T) (Homo sapiens, UniProt O43525, A315T); test: cell-based; settings: for Non-normalized tail current V0.5 / Normalized tail current V0.5: KCNQ3*
# Description: as §1, §2
# KCNQ5 = KCNQ5 (Homo sapiens, UniProt Q9NR82); test: cell-based; settings: for Non-normalized tail current V0.5 / Normalized tail current V0.5 / Slope: KCNQ5
# Description: as §1, §2
# KCNQ2 = KCNQ2 (Homo sapiens, UniProt O43526); test: Two-electrode voltage-clamp of homomeric KCNQ2 in Xenopus oocytes; settings: for Non-normalized tail current V0.5 / Normalized tail current V0.5 / Slope: KCNQ2
# Description: as §1, §2
compound,measurement,setting,value
"CC(C)CC(=O)O [IVA, isovaleric acid]",Non-normalized tail current V0.5,KCNA1,-37.8 ± 3.2 mV
same,Normalized tail current V0.5,KCNA1,-38.9 ± 1.1 mV
same,EC50,KCNQ4,16.2 µM
same,Non-normalized tail current V0.5,KCNQ4; 1 µM,-6.7 ± 9.1 mV
same,Normalized tail current V0.5,KCNQ4; 1 µM,-6.2 ± 1.4 mV
same,Slope,KCNQ4; 1 µM,14.6 ± 1.4 mV
same,Non-normalized tail current V0.5,KCNQ4; 10 µM,-9.1 ± 10.4 mV
same,Normalized tail current V0.5,KCNQ4; 10 µM,-7.2 ± 1.6 mV
same,Slope,KCNQ4; 10 µM,16.2 ± 1.5 mV
same,Non-normalized tail current V0.5,KCNQ4; 100 µM,-10.2 ± 11.1 mV
same,Normalized tail current V0.5,KCNQ4; 100 µM,-7.5 ± 1.8 mV
same,Slope,KCNQ4; 100 µM,15.3 ± 1.8 mV
same,Non-normalized tail current V0.5,KCNQ4; 500 µM,-7.8 ± 11.9 mV
same,Normalized tail current V0.5,KCNQ4; 500 µM,-7.5 ± 5.7 mV
same,Slope,KCNQ4; 500 µM,16.2 ± 1.6 mV
same,Non-normalized tail current V0.5,KCNQ4; 5 mM,-9.3 ± 12.1 mV
same,Normalized tail current V0.5,KCNQ4; 5 mM,-6.1 ± 2.1 mV
same,Slope,KCNQ4; 5 mM,15.6 ± 1.9 mV
same,EC50,KCNQ3* (KCNQ3-A315T),0.5 µM
same,Non-normalized tail current V0.5,KCNQ3* (KCNQ3-A315T); 1 µM,-53.9 ± 1.3 mV
same,Normalized tail current V0.5,KCNQ3* (KCNQ3-A315T); 1 µM,-53.1 ± 2.1 mV
same,Non-normalized tail current V0.5,KCNQ3* (KCNQ3-A315T); 10 µM,-55.6 ± 1.5 mV
same,Normalized tail current V0.5,KCNQ3* (KCNQ3-A315T); 10 µM,-55.8 ± 2.2 mV
same,Non-normalized tail current V0.5,KCNQ3* (KCNQ3-A315T); 100 µM,-54.8 ± 0.9 mV
same,Normalized tail current V0.5,KCNQ3* (KCNQ3-A315T); 100 µM,-53.9 ± 2.2 mV
same,Non-normalized tail current V0.5,KCNQ3* (KCNQ3-A315T); 500 µM,-53.3 ±1.7 mV
same,Normalized tail current V0.5,KCNQ3* (KCNQ3-A315T); 500 µM,-52.6 ± 2.1 mV
same,Non-normalized tail current V0.5,KCNQ3* (KCNQ3-A315T); 5 mM,-51.7 ± 1.5 mV
same,Normalized tail current V0.5,KCNQ3* (KCNQ3-A315T); 5 mM,-51.0 ± 2.3 mV
same,EC50,KCNQ5,1939 ± 4.7 µM
same,Non-normalized tail current V0.5,KCNQ5; 1 µM,-41.5 ± 1.9 mV
same,Normalized tail current V0.5,KCNQ5; 1 µM,-42.4 ± 1.7 mV
same,Slope,KCNQ5; 1 µM,6.8 ± 2.1 mV
same,Non-normalized tail current V0.5,KCNQ5; 10 µM,-41.8 ± 1.6 mV
same,Normalized tail current V0.5,KCNQ5; 10 µM,-43.8 ± 1.7 mV
same,Slope,KCNQ5; 10 µM,6.9 ± 1.7 mV
same,Non-normalized tail current V0.5,KCNQ5; 100 µM,-41.6 ± 2.1 mV
same,Normalized tail current V0.5,KCNQ5; 100 µM,-43.4 ± 1.4 mV
same,Slope,KCNQ5; 100 µM,6.7 ± 1.5 mV
same,Non-normalized tail current V0.5,KCNQ5; 500 µM,-42.9 ± 2.7 mV
same,Normalized tail current V0.5,KCNQ5; 500 µM,-44.6 ± 1.8 mV
same,Slope,KCNQ5; 500 µM,6.9 ± 1.6 mV
same,Non-normalized tail current V0.5,KCNQ5; 5 mM,-44.6 ± 3.2 mV
same,Normalized tail current V0.5,KCNQ5; 5 mM,-46.3 ± 2.1 mV
same,Slope,KCNQ5; 5 mM,7.3 ± 1.6 mV
same,EC50,KCNQ2,0.34 µM
same,Non-normalized tail current V0.5,KCNQ2; 0.1 µM,-45.9 ± 3.1 mV
same,Normalized tail current V0.5,KCNQ2; 0.1 µM,-46.6 ± 0.9 mV
same,Slope,KCNQ2; 0.1 µM,5.5 ± 0.9 mV
same,Non-normalized tail current V0.5,KCNQ2; 1 µM,-49.3 ± 6.9 mV
same,Normalized tail current V0.5,KCNQ2; 1 µM,-48.5 ± 1.3 mV
same,Slope,KCNQ2; 1 µM,7.0 ± 0.8 mV
same,Non-normalized tail current V0.5,KCNQ2; 10 µM,-50.7 ± 6.5 mV
same,Normalized tail current V0.5,KCNQ2; 10 µM,-50.1 ± 1.2 mV
same,Slope,KCNQ2; 10 µM,6.9 ± 0.8 mV
